Some results are limits rather than exact numbers.

The text below walks through data of US5130450A, “Platinum complexes” (Nippon Kayaku Kabushiki Kaisha, priority 1990, dated 1992).

Compound `CC(C)(CO)C(=O)[O-].CC(C)(CO)C(=O)[O-].N.N.[Pt+2]` [compound No. 11, cis-Bis(3-hydroxy-2,2-dimethylpropionato)-diammine platinum (II)] gave a Solubility in water of more than 5000 µg/mL. With “cis-Bis(1-hydroxy-cyclobutane-1-carboxylato)-diammine platinum (II) [compound No. 3]” the figure was more than 5000 µg/mL. In turn, “cis-Bis(2-hydroxy-3,3-dimethylbutyrato)trans-1,2-diaminocyclohexane platinum (II) [compound No. 6]” gave a Solubility in water of more than 5000 µg/mL. The compound `CC(C)(CO)C(=O)[O-].CC(C)(CO)C(=O)[O-].NCC1(N)CCCCC1.[Pt+2]` [compound No. 14, cis-Bis(3-hydroxy-2,2-dimethylpropionato)-1-amino-1-aminomethylcyclohexane platinum (II)] gave a Solubility in water of more than 5000 µg/mL.
